# Test results taken from PMC7948456, “Kinetics of cytochrome P450 3A4 inhibition by heterocyclic drugs defines a general sequential multistep binding process” (The Journal of Biological Chemistry, 2020).
# The chains behind the UniProt entries cited, without tags or fusion partners. Residues count along the entry.
# UniProt P08684, 13-503: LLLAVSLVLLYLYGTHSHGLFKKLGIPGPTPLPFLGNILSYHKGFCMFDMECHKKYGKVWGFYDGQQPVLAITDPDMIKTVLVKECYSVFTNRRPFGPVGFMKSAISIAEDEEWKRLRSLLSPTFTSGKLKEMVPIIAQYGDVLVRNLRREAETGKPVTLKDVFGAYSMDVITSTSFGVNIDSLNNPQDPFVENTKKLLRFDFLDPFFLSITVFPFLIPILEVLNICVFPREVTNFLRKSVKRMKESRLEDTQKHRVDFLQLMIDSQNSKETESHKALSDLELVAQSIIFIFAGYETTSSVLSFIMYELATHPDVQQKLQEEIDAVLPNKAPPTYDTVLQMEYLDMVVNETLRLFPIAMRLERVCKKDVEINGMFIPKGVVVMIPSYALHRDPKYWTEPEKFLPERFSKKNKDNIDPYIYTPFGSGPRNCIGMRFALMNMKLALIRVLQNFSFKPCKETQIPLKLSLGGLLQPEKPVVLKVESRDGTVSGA
# Legend:
# P450 3A4 [1] = molecular target: T1, P450 3A4 (Homo sapiens, UniProt P08684); conditions: KinTek Explorer fit
# P450 3A4 [2] = molecular target: T1, P450 3A4; experiment: Inhibitor-binding kinetics (stopped-flow absorbance, SVD analysis); conditions: ligand 2 μM final, P450 3A4 2 μM
compound,measurement,setting,value
CCC(C)n1ncn(-c2ccc(N3CCN(c4ccc(OCC5COC(Cn6cncn6)(c6ccc(Cl)cc6Cl)O5)cc4)CC3)cc2)c1=O (stereo not shown),k−3 (model),P450 3A4 [1]; E + I ⇄ EI off-rate,40 s⁻¹
same,k4 (model),P450 3A4 [1]; EI → E′I,0.3 s⁻¹
same,k−4 (model),P450 3A4 [1]; E′I → EI,0.07 s⁻¹
same,"kobs, initial rate of binding (ΔA390 − A425)",P450 3A4 [2],195 s⁻¹
